Assay results from patent US20260224524A1, “A PHARMACEUTICAL COMPOSITION TARGETING MUTANT P53 AND HER2” (DR DOZO LABORATORIES, priority 2023, published 2026).

Tested on: human tumour xenograft MDA-MB-231
Test: Human tumour xenograft MDA-MB-231 model, tumour volume and relative tumour volume
Format: in vivo, mice
Conditions: Group B, 2.5 mg/kg i.v. day 1, 5, 9; day 5
Description: The therapeutic effect of SACC is evaluated against triple-negative breast cancer cell line MDA-MB-231 by analysing tumour volume and relative tumour volume. The study involved the use of six mice. These mice were administrated treatment according to the following Groups: […]

SMILES: COc1cccc2c1C(=O)c1c(O)c3c(c(O)c1C2=O)C[C@@](O)(C(=O)CO)C[C@@H]3O[C@H]1C[C@H](N)[C@H](O)[C@H](C)O1 [ADR, Adriamycin]
- RTV (Relative Tumour Volume): 1.06
